# Source: US11918581B2, “Combination therapy comprising JAK pathway inhibitor and rock inhibitor” (Incyte Corporation, priority 2021, dated 2024)
# Target: human JAK1 (a.a. 837-1142) (Homo sapiens, UniProt P23458)
# Assay: In vitro JAK kinase assay (HTRF), JAK1
# Assay type: biochemical
# Conditions: 1 mM ATP
compound,measurement,value
"CN(C)Cc1cc(F)cc(OC2CCN(CC(CC#N)n3cc(-c4ncnc5[nH]ccc45)cn3)CC2)c1 (single isomer, unassigned) [Compound 14, 4-(4-{3-[(dimethylamino)methyl]-5-fluorophenoxy}piperidin-1-yl)-3-[4-(7H-pyrrolo[2,3-d]pyrimidin-4-yl)-1H-pyrazol-1-yl]butanenitrile]",IC50,< 0.01 µM
